From patent publication US20150374680A1, “POCHOXIME CONJUGATES USEFUL FOR THE TREATMENT OF HSP90 RELATED PATHOLOGIES” (UNIVERSITE DE STRASBOURG, priority 2010, published 2015)

Biological target: human HSP90α (Homo sapiens, UniProt P07900)
Test: biochemical

Kd: 0.032 µM
Compound: CC1CC=CC(NC(=O)CSC2OC(CO)C(O)C(O)C2O)CC=CC(=NOCC(=O)N2CCCCC2)Cc2cc(O)cc(O)c2C(=O)O1 (stereo not shown) [As-14(6-S)]
